# Assay results reported in patent US6602852B1, “Basic peptides and pharmaceutical compositions containing same” (NST NeuroSurvival Technologies, Ltd., priority 1998, dated 2003).
# Test: Pharmacokinetic studies: appearance and disappearance of staining in liver
# Assay type: in vivo
# Details: mice
# Protocol: The appearance and disappearance of the compound NST302 from the liver following its injection to mice. Animals treated or untreated with anti-Fas antibody were injected with the NST302 compound, and its detection was tested 5, 15, 20, 30, 60, 90, 120 min after its injection.
# While dealing with a biological compound that is destined to be used for diagnostic purposes, the time course that the compound is detectable in the body should be considered. Pharmacokinetics appearance and disappearance of the compound NST302 was examined in the following time intervals: 5, 15, 20, 30, 60, 90, 120 min after injection of the compound (FIG. 9).
substance,measurement,value
Myristate-KKKKKRFSFKKSFKLSGFSFKKNKKK (SEQUENCE ID NO. 2)-(biotin) [NST302],liver staining two hours after injection,no staining was detected; also recorded: no staining was found

# “Also recorded” adds a separate entry of the source.
